# Test results from patent US10398647B2, “Hydrogel compositions and drug delivery systems comprising the same” (Industrial Technology Research Institute, priority 2016, dated 2019).
# Several values for one entry are separate records, joined by “and”; a condition that tells them apart may be missing. Equal values may be shown once.
# Test system: BT474 breast cancer
# Experiment: In-vivo pharmacodynamics (PD) study, tumor growth inhibition
# Conditions: Day 28 after dosing, 50 mg/kg, BT474 breast cancer mouse
# Protocol: The tumor volume (mm^3) was respectively measured on specific days after dosing to build tumor-volume variation curves. In accordance with the data of the tumor-volume variation curves, the tumor growth inhibition (TGI) was calculated and is shown in Table 4.
# The tumor volume (mm^3) was respectively measured on specific days after dosing to build tumor-volume variation curves. In accordance with the data of the tumor-volume variation curves, the tumor growth inhibition (TGI) was calculated and is shown in Table 5 and FIG. 2.
substance,measurement,value
"Herceptin: Herceptin solution (20.0 mg/mL in PK, 10 mg/mL in PD) without hydrogel; antibody drug",TGI (% ± SEM),52.7% and 52.7 ± 22.2%
